Measured values reported in US6258780A (priority 1997, dated 2001).

How the values were obtained:
[1] = BBB permeability to Evans Blue following stress, adrenaline or atropine (Example 2); conditions: following stress or 10 minutes after ip adrenaline or atropine
[2] = tested on: brain AChE; assay: brain (cortical) AChE activity after injection in mice; assay type: in vivo, mouse

CNCC(O)c1ccc(O)c(O)c1 (stereo not drawn) [adrenaline]
BBB permeability to Evans Blue [1]: enhanced BBB permeability

CNC(=O)Oc1ccc2c(c1)[C@]1(C)CCN(C)[C@@H]1N2C [physostigmine]
inhibition of brain AChE activity ([2]; non-stressed mice, similar doses (0.1-0.5 mg/kg)): more than 50%
AChE activity in cerebral cortex, % of normal level ([2]; stressed mice, 0.1 mg/kg): < 50%
